Laboratory results from PMC5045374 (Oncotarget, 2016).

System: ALK (Δ4-11) in CLB-BAR cells

For `COc1cc(N2CCC(N3CCN(C)CC3)CC2)ccc1Nc1ncc(Cl)c(Nc2ccccc2P(C)(C)=O)n1` [brigatinib], the “concentration at which phosphorylation of ALK was abolished” value was 50 nM.
